Reference: article PMC3812312 (Journal of medicinal chemistry, 2013)

Tested on: VERO cells
Test: Cell viability assay
Type: cell-based
Details: VERO versus MCF-7

O=C(CCCCCCC(=O)Nc1ccccc1)NO [SAHA, suberoylanilide hydroxamic acid, reference compound]
in vitro therapeutic index (IVTI): smallest in vitro therapeutic index
